Experimental data taken from ChEMBL document CHEMBL1136303, “4-(2-pyridyl)piperazine-1-carboxamides: potent vanilloid receptor 1 antagonists” (Bioorg Med Chem Lett, 2003).

Amino acid sequences for entries named in this document (tags omitted).
UniProt O35433, whole entry: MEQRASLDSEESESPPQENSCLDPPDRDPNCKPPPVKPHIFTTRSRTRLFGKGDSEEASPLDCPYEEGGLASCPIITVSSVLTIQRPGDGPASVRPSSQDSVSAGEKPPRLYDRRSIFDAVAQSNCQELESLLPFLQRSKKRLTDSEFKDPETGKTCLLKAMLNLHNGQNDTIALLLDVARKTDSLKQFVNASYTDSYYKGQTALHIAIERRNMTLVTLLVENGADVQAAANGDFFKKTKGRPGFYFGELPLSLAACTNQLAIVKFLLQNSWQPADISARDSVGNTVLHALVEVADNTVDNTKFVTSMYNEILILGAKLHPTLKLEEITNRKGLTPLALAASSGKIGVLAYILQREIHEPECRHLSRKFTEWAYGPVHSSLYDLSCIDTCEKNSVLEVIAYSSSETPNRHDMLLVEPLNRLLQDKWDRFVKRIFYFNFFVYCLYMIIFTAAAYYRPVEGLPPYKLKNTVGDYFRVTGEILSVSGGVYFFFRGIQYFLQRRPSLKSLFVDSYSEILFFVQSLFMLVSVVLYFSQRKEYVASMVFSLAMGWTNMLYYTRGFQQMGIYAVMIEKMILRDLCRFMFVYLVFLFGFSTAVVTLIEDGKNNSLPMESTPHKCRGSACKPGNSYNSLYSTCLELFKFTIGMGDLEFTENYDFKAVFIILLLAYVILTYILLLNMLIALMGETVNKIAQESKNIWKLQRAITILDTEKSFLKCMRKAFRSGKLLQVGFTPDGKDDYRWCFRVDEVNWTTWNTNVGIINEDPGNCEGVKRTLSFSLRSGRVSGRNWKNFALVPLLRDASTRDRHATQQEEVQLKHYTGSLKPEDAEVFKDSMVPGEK

How the values were obtained:
[1] = molecular target: T1, Transient receptor potential cation channel subfamily V member 1 (Rattus norvegicus, UniProt O35433); test: Vanilloid receptor subtype 1 antagonist activity based on its ability to block low pH-induced activation of the rat VR1 channel in a HEK293 cell line; format: functional
[2] = molecular target: T1, Transient receptor potential cation channel subfamily V member 1; test: Vanilloid receptor subtype 1 antagonist activity based on its ability to block capsaicin-induced (CAP) activation of the rat VR1 channel in a HEK293 cell line; format: functional

CC(C)c1ccc(NC(=O)N2CCN(c3ncccc3C(F)(F)F)CC2)cc1 gave a pIC50 [1] of 7.41.
For CC(C)(C)c1ccc(NC(=O)N2CCN(c3ncccc3Cl)CC2)cc1, the pIC50 [2] was 7.46 and the pIC50 [1] was 8.32.

pIC50: −log10 of the molar value.
